Experimental data reported in patent US20050288347A1, “Certain triazole-based compounds, compositions, and uses thereof” (priority 2004, published 2005).

Target: protein kinase
Assay: HTS ATP-utilizing enzyme assay, off-chip mobility-shift format (Caliper HTS 250)
Type: biochemical, human
Description: The following procedures describe the reagent and plate preparation for a HTS of an ATP-utilizing enzyme, such as a protein kinase, run in an off-chip mobility-shift assay format. The following provides an HTS protocol for running a protein kinase HTS screen on a Caliper HTS 250 microfluidics system. The following parameters are dependent on the protein kinase used and can be determined by one skilled in the art as part of a typical assay development process. For example, the peptide substrate used can be identified from the current literature, by screening a peptide library of potential protein kinase substrates, or by other applicable means accepted in the field.
The following table provides typical screen assay parameters appropriate for a Caliper HTS 250 microfluidics system. […]
Assays to determine the kinase inhibitory activity of chemical entities of the present disclosure were performed using a Caliper HTS 250 microfluidics device, Greiner U-bottom assay plates, a Multidrop for transfer of reagents, and Biomek FX (AMNCBM03) software. […] The inhibition of the ATP-utilizing enzyme, such as a particular protein kinase, was determined by measuring the ratio of the peptide substrate to phosphorylated product for each well of the assay plate using the Caliper HTS 250 system. […]

Q: CCn1c(CNc2ccc(OC)cc2)nnc1SCC(=O)N1CCCc2ccccc21 was tested. Which Kinase did it give?
A: Its Kinase is “PDGFRR-α and FYN”.
